# Binding of CDR-mutated scFvs to a peptide of the spike HR2 region

Target: peptide PDVDLGDISGINAS, taken from heptad repeat 2 (HR2) of SARS-CoV-2 spike.

Ab-14 is the parent antibody, in scFv form: VH, then a (GGGGS)3 linker, then VL. The light chain is unchanged in all variants.
VH: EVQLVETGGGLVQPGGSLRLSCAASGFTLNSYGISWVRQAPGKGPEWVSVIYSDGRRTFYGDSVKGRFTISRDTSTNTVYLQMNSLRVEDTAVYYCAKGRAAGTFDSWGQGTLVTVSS
VL: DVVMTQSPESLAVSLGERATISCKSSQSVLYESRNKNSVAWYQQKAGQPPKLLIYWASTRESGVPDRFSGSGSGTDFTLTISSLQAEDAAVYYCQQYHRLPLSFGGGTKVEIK

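The starting antibody came from a phage panning campaign against this peptide. Library AAYL49 holds single substitutions and randomly drawn double and triple substitutions in the CDRs. In AlphaSeq, yeast of one mating type display the scFv and yeast of the other type display the target. The frequency of each diploid, read from paired DNA barcodes, reflects how well the two displayed proteins bind. A regression on co-assayed BCL2-family reference pairs converts the normalised counts of each replicate to an apparent Kd. Mating was done three times.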

Changes read parent residue, position, new residue, counted from the first residue of the VH shown.
The read-out is the apparent dissociation constant on a log10 scale (nM): the lower, the stronger.
Replicates are averaged; those with no signal do not enter the mean.
"nd" marks a missing value. The strain was present, yet no cells mated with the target were sequenced in that replicate, which points to weak or no binding.
Nonspecific signal, from three strains lacking the peptide, appeared in 15% of pairings of library AAYL49, centred on 4.06 (5% of these signals below 2.83); values are not corrected for it. The control count says in how many pairings with the empty strains this scFv gave a signal.

The variant Y52P S63I G103P showed nd, nd, nd (controls 0 of 9).
The variant S53Q R57Y R100S showed nd, nd, nd (controls 0 of 9).
The variant D54Y G99Q S107F showed nd, 4.10, nd (controls 2 of 9).
The variant G33N A101P F105C showed nd, nd, nd (controls 0 of 9).
The variant Y32N T58R D62C showed nd, nd, nd (controls 1 of 9).
The variant F27E F59E R100S showed 2.97, nd, nd (controls 0 of 9).
The variant F27L G55Y G99P showed nd, nd, nd (controls 0 of 9).
The variant S31W R56A G61R showed 1.48, 1.93, 1.16 (mean 1.53; controls 1 of 9).
The variant G33L G61R T104G showed nd, nd, nd (controls 0 of 9).
The variant L29V G61R A101Q showed 1.42, 1.47, 1.71 (mean 1.53; controls 2 of 9).
The variant I34C S35R D54A showed nd, 5.16, nd (controls 3 of 9).
The variant F27K S35Y S63L showed nd, nd, nd (controls 0 of 9).
The variant V64D G99E showed nd, 3.46, 4.83 (mean 4.15; controls 4 of 9).
The variant S53I R57Q V64N showed 3.96, 3.99, 4.89 (mean 4.28; controls 5 of 9).
The variant Y60H V64M A102L showed nd, nd, 3.64 (controls 3 of 9).
The variant T28I V50P S107T showed 5.71, nd, nd (controls 3 of 9).
The variant Y32R S35T F59A showed nd, 3.89, 4.20 (mean 4.04; controls 3 of 9).
The variant S35N R57W G103N showed nd, nd, nd (controls 0 of 9).
The variant S35N R56F D106T showed nd, nd, 2.48 (controls 1 of 9).
The variant F59M G103V D106S showed nd, nd, nd (controls 2 of 9).
The variant F27P Y52P S53T showed nd, 3.99, nd (controls 0 of 9).
The variant N30L I34T G103W showed nd, nd, nd (controls 0 of 9).
The variant G26S V50H S63G showed nd, nd, nd (controls 4 of 9).
The variant F27R T28S D106F showed nd, nd, nd (controls 0 of 9).
The variant T58M F59W R100T showed 2.12, 2.73, 2.26 (mean 2.37; controls 3 of 9).
The variant S31R A101S G103A showed nd, nd, nd (controls 0 of 9).
The variant G33D V50A R57D showed nd, nd, nd (controls 0 of 9).
The variant Y32E R100L showed 2.97, 2.40, 2.71 (mean 2.70; controls 1 of 9).
The variant R56H V64D A101H showed 5.51, 4.61, nd (mean 5.06; controls 5 of 9).
The variant L29Q S53I F105N showed nd, nd, nd (controls 0 of 9).
The variant G61L K65C G103P showed nd, nd, nd (controls 0 of 9).
The variant S35Q V50A I51R showed nd, 3.92, nd (controls 4 of 9).
The variant N30P S31T F105L showed nd, nd, nd (controls 0 of 9).
The variant Y52P D54R F59I showed 3.66, nd, nd (controls 0 of 9).
The variant F27W R56T showed nd, 4.28, nd (controls 0 of 9).
The variant S31C K65D S107M showed nd, nd, nd (controls 0 of 9).
The variant F27Y Y60K D106Y showed nd, nd, nd (controls 3 of 9).
The variant T28R S31C T58D showed 4.79, 2.67, nd (mean 3.73; controls 0 of 9).
The variant D62L G99L T104N showed nd, nd, nd (controls 0 of 9).
The variant Y32P G33M S63V showed 6.07, 3.77, 4.80 (mean 4.88; controls 5 of 9).
The variant F27A R56P R57I showed nd, nd, nd (controls 0 of 9).
The variant S31T S107P showed nd, 3.66, nd (controls 3 of 9).
The variant Y32F G99M D106T showed nd, 3.34, nd (controls 0 of 9).
The variant F59L V64M D106G showed nd, nd, 3.71 (controls 0 of 9).
The variant F27Y I34S G61E showed nd, nd, nd (controls 0 of 9).
The variant T28K Y52T G99E showed nd, nd, nd (controls 5 of 9).
The variant F27S D106L showed 2.72, 1.95, 1.87 (mean 2.18; controls 1 of 9).

Picked from the list: the 5 lowest averages where every replicate gave a value.

With S31W R56A G61R the result was 1.48, 1.93, 1.16 (mean 1.53; controls 1 of 9).
With L29V G61R A101Q the result was 1.42, 1.47, 1.71 (mean 1.53; controls 2 of 9).
With F27S D106L the result was 2.72, 1.95, 1.87 (mean 2.18; controls 1 of 9).
With T58M F59W R100T the result was 2.12, 2.73, 2.26 (mean 2.37; controls 3 of 9).
With Y32E R100L the result was 2.97, 2.40, 2.71 (mean 2.70; controls 1 of 9).

Reference: Engelhart et al. 2022, doi:10.1038/s41597-022-01779-4. File: FLAb, binding data.